Measurements taken from patent US6927286B1, “Bleomycin gene cluster components and their uses” (The Regents of the University of California, priority 1999, dated 2005).

What was measured:
[1] = target: T1, apo-BlmI (type II peptidyl carrier protein BlmI, apo-form, produced from pBS2)
T1 chain: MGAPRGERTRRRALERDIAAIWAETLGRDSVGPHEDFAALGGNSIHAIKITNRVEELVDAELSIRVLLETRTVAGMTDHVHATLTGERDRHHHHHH

[2] = target: T2, TcmM (type II acyl carrier protein of tetracenomycin C biosynthesis in S. glaucescens), His-tagged at both ends, P12884
T2 chain: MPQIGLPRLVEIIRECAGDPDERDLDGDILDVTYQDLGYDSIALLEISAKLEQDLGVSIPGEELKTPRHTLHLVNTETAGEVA

[3] = target: MBlmX-2 (maltose-binding protein fusion of the adenylation and PCP domains from the second module of BlmX)

B1: PptA (phosphopantetheinyl transferase from Streptomyces verticillus ATCC15003), His-tagged (protein)
chain: MIAALLPSWAVTEHAFTDAPDDPVSLLFPEEAAHVARAVPKRLHEFATVRVCARAALGRLGLPPGPLLPGRRGAPSWPDGVVGSMTHCQGFRGAAVARAADAASLGIDAEPNGPLPDGVLAMVSLPSEREWLAGLAARRPDVHWDRLLFSAKESVFKAWYPLTGLELDFDEAELAVDPDAGTFTARLLVPGPVVGGRRLDGFEGRWAAGEGLVVTAIAVAAPAGTAEESAEGAGKEATADDRTAVPHHHHHH
For B1, the “in vitro phosphopantetheinylation with (^3H)-(pantetheinyl)-CoASH, SDS electrophoresis and autoradiography” value [1] was “PptA exhibited a robust phosphopantetheinylation activity on both BlmI and MBlmX-2”, the “in vitro phosphopantetheinylation assay, autoradiography” value [2] was “PptA was able to posttranslationally modified both ACP substrates” and the “in vitro phosphopantetheinylation with (^3H)-(pantetheinyl)-CoASH, SDS electrophoresis and autoradiography” value [3] was “PptA exhibited a robust phosphopantetheinylation activity on both BlmI and MBlmX-2”.
